# Measured values published in article PMC7030922.
# Some of the results follow.
# Molecular target: Voltage-dependent L-type calcium channel subunit beta-1 (UniProt Q8R3Z5)
# Experiment: cross-link between two proteins; cross-linking mass spectrometry
substance,measurement,value
"Voltage-dependent L-type calcium channel subunit beta-4, Q8R0S4",listed as a hit,yes
